Measured values as given in patent US6713250B1, “Identification of human allergens and T-lymphocyte antigens in vitro” (The Research Foundation of State University of New York, priority 1997, dated 2004).

Test system: human naive T-cells (PBMC)
Experiment: Primary in vitro sensitization culture of PBMC with or without mitomycin C treated T2 cells, 3H-thymidine uptake
Assay type: cell-based
Description: Preparation of peripheral blood mononuclear cells (PBMC). The research protocol was approved by the Committee on Research Involving Human Subjects of SUNY @ Stony Brook. After informed consent, heparinized blood was obtained by venipuncture. PBMC (peripheral blood mononuclear cells, which include lymphocytes and macrophages/monocytes) were prepared from heparinized peripheral blood by density centrifugation over Ficoll/Hypaque (Pharmacia, Piscataway, N.J.). PBMC were then washed 3 times in serum free wash medium consisting of SMEM (Gibco, Grand Island, N.Y.), and mixed (1:1) with AIM V medium (Gibco). At no time did the PBMC contact animal serum. PBMC were counted, and resuspended at 2×10^6 cells/ml in AIM V medium (Gibco).
Preparation and mitomycin C treatment of T2 cells. T2 cells were cultured in AIM V media (Gibco). Prior to treatment, they were washed, counted, and resuspended in AIM V media at 2×10^6 cells/ml. Mitomycin C (Sigma, St Louis, Mo.) was then added at 30 μg/ml for a 2 hour incubation at 37° C. The T2 cells were then washed 4 times in serum free wash media, counted with trypan blue dye exclusion, and resuspended at 1×10^6 cells/ml.
In vitro sensitization cultures. […] The wells were harvested 18 hours later, and ^3H-thymidine uptake was determined with a scintillation counter (Pharmacia LKB Nuclear, Gaithersburg, Md.).

SMILES: COc1cc(C=O)ccc1O [vanillin]
- donor PBMC that responded, FIG. 2 (PBMC from 4 donors, 6 days with mitomycin C treated T2 cells, each compound 3.3 μM to 60 μM): none
- response of PBMC, FIG. 4 (PBMC incubated 6 days with mitomycin C treated T2 cells): negative response
